These are literature values, as cited in publication PMC8583936, “Machine Learning Assisted Approach for Finding Novel High Activity Agonists of Human Ectopic Olfactory Receptors” (International Journal of Molecular Sciences, 2021).

By UniProt entry, the sequences of proteins in these tests, tags left out.
UniProt Q9P1Q5, whole entry: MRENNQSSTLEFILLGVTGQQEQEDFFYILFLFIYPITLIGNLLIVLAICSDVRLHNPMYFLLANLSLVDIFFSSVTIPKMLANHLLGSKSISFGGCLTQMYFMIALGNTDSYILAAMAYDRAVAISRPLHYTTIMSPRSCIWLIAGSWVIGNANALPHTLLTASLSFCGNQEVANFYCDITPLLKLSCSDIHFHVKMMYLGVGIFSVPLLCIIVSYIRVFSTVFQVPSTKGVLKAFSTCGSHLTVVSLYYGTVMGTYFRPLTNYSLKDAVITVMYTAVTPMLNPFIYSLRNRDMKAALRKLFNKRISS
UniProt Q9Y3N9, whole entry: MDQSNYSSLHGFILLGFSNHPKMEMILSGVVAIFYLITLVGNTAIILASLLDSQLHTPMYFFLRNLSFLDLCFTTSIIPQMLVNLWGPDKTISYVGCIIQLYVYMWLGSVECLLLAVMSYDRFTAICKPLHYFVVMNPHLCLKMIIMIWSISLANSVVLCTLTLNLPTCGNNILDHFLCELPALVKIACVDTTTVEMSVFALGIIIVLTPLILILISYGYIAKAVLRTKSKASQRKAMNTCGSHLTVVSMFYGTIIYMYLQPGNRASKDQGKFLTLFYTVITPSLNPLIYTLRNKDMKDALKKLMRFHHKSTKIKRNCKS

The target in series [1] is OR1A1 (Homo sapiens, UniProt Q9P1Q5). To be noted: Table S1; ref Supplement references [1]-[9]; cited from earlier work.
Series [2] concerns the target OR2W1 (Homo sapiens, UniProt Q9Y3N9). To be noted: Table S2; ref Supplement references [2]-[12]; cited from earlier work.

Only a part of the results on these compounds is given; other tests are left out.

In the case of `Cc1ccc([N+](=O)[O-])cc1[N+](=O)[O-]`, in series [1], the “Class (agonist / non-agonist / conflicting info.) for OR1A1” value is listed as “Conflicting info”. For the same molecule, the “Class (agonist / non-agonist / antagonist / conflicting info.) for OR2W1” value in series [2] is listed as “Non-agonist”.
